Experimental findings from patent publication US10167293B2, “[8-(phenylsulfonyl)-3,8-diazabicyclo[3.2.1]oct-3-yl](1H-1,2,3-triazol-4-yl)methanones” (BAYER PHARMA AKTIENGESELLSCHAFT, priority 2016, dated 2019) are described below.

Chains of the proteins cited; added tags and fusions are not shown.
UniProt P42330, whole entry: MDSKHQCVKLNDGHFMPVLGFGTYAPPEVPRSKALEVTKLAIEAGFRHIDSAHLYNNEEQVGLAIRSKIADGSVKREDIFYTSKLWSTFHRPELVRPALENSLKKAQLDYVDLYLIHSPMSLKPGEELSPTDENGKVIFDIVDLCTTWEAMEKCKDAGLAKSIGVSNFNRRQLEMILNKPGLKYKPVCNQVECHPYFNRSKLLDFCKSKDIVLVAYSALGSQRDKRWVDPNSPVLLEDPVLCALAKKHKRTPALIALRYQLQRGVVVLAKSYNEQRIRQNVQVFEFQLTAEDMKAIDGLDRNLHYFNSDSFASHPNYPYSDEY

The target in the experiment is recombinant human AKR1C3 (Homo sapiens (Human), UniProt P42330). Briefly: AKR1C3-inhibitory activity assay (Coumberone to Coumberol fluorescence). Conditions: read-out: IC50 human AKR1C3; recombinant human AKR1C3, 15 min pre-incubation, 10 μM NADPH, 0.3 μM Coumberone. As for the experimental part: The AKR1C3-inhibitory activity of the substances of the present invention was measured in the AKR1C3 assay described in the paragraphs below.
Essentially, the enzyme activity is measured by quantification of the generation of Coumberol from Coumberone (Halim et al. J. AM. CHEM. SOC. 2008, 130:14123-14128 and Yee et al. Proc. Natl. Acad. Sci. USA 2006, 103:13304-13309). In this test, the increase of the highly fluorescent Coumberol by NADPH—(nicotinamide adenine dinucleotide phosphate)-dependent reduction of the non-fluorescent Coumberone by AKR1C3 was determined.
The enzyme used was recombinant human AKR1C3 (Aldo-keto reductase family 1 member C3; GenBank Accession No. NM_003739). […]
For the assay, 50 nl of a 100-fold concentrated solution of the test substance in DMSO were pipetted into a black low-volume 384-well microtiter plate (Greiner Bio-One, Frickenhausen, Germany), 2.5 μl of a solution of AKR1C3 in assay buffer [50 mM potassium phosphate buffer pH 7, 1 mM DTT, 0.0022% (w/v) Pluronic F-127, 0.01% BSA (w/v) and protease inhibitor cocktail (Complete, EDTA-free Protease Inhibitor Cocktail from Roche)] were added and the mixture was incubated for 15 min to allow pre-binding of the substances to the enzyme prior to the enzyme reaction. […] The intensity of the fluorescence was used as a measure of the amount of Coumberole formed and thus of the enzyme activity of AKR1C3. […]

For `Cc1ccc(S(=O)(=O)N2CCN(C(=O)c3ccno3)CC2)cc1`, the IC50 – broadly, the concentration that gives 50% inhibition – was determined as 1810 nM.
